Molecules are shown by their SMILES. This is a selection; strong and weak results do not stand in their true shares. Activity calls are given as the source filed them.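 The calls were made as follows: active = inhibition above the mean plus 3 SD of solvent-only control wells, limit set per screening run (cut at about 16% in these data); inactive = the rest.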

The nature of the assay: inhibition of STAT1-driven transcription – cell-based, NIH 3T3, luciferase luminescence, IFN-gamma, counter-screen for STAT3 inhibitor project, confirmation (AID 1317).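 Also: 0% = DMSO with IFN-gamma and 100% = nifuroxazide control.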 As to conditions: NIH 3T3 STAT1-luciferase reporter, IFN-gamma induced, at 5.7 µM, active compounds read high. In general terms: The purpose of a counterscreen is to sort out artefacts and off-target activity.
Regarding `O=c1c2cc([N+](=O)[O-])ccc2[nH]c2c([N+](=O)[O-])cc([N+](=O)[O-])cc12`, the inhibition is inactive: 15.3%.

As a reminder, the inhibition is how much of the control response was suppressed.

(Values after PubChem BioAssay AID1317 (The Scripps Research Institute Molecular Screening Center, 2008).)
